Measured values: US9475755B2, “Prophylactic agent for chronic kidney disease” (SBI Pharmaceuticals Co., Ltd., priority 2011, dated 2016)

How the values were obtained:
chronic kidney disease [1] = test: Example 1: ingestion by a person with long-term chronic kidney disease; format: in vivo, human
Text: A person suffering long-term from chronic kidney disease was examined. This person has not been diagnosed with diabetes. Urea nitrogen, serum creatinine, eGFR, and the diagnosis of chronic kidney disease on (1) Dec. 22, 2010 and on (2) Feb.

chronic kidney disease [2] = test: Example 2: ingestion by a person diagnosed with chronic kidney disease, dose switched 50 mg / 5 mg / 50 mg; format: in vivo, human
[3] = (e) after one month of returning to 50 mg aminolevulinic acid phosphate + 57.4 mg sodium ferrous citrate

In the case of aminolevulinic acid phosphate, the “chronic kidney disease (overall statement)” value (chronic kidney disease [1]; 50 mg aminolevulinic acid phosphate + 57.4 mg sodium ferrous citrate each day, about seven weeks) is reported as “improved”, the Serum creatinine (chronic kidney disease [1]; 2011/02/24, after 50 mg aminolevulinic acid phosphate + 57.4 mg sodium ferrous citrate each day for about seven weeks, before ingestion 2.77) is reported as 2.37 mg/dL and the eGFR (chronic kidney disease [1]; 2011/02/24, after 50 mg aminolevulinic acid phosphate + 57.4 mg sodium ferrous citrate each day for about seven weeks, before ingestion 13.80) is reported as 16.70 mL/min/1.73 m^2. For the same substance, the Urea nitrogen (chronic kidney disease [1]; 2011/02/24, after 50 mg aminolevulinic acid phosphate + 57.4 mg sodium ferrous citrate each day for about seven weeks, before ingestion (2010/12/22) 47.00) was 37.00 mg/dL, the “Diagnosis of chronic kidney disease” value (chronic kidney disease [1]; 2011/02/24, after 50 mg aminolevulinic acid phosphate + 57.4 mg sodium ferrous citrate each day for about seven weeks, before ingestion Fifth stage (renal failure)) was “Fourth stage” and the Serum creatinine (chronic kidney disease [2]; (b) after one month of 50 mg aminolevulinic acid phosphate + 57.4 mg sodium ferrous citrate, before ingestion (a) 1.38) was 1.21 mg/dL. The Urea nitrogen (chronic kidney disease [2]; (b) after one month of 50 mg aminolevulinic acid phosphate + 57.4 mg sodium ferrous citrate, before ingestion (a) 15.60) was 14.00 mg/dL, the eGFR (chronic kidney disease [2]; (b) after one month of 50 mg aminolevulinic acid phosphate + 57.4 mg sodium ferrous citrate, before ingestion (a) 40.60) was 46.90 mL/min/1.73 m^2 and the Serum creatinine (chronic kidney disease [2]; [3]) was 1.16 mg/dL. It also gave a Urea nitrogen (chronic kidney disease [2]; [3]) of 13.10 mg/dL and an eGFR (chronic kidney disease [2]; [3]) of 49.77 mL/min/1.73 m^2.
